From paper PMC3846293 (Bioorganic & medicinal chemistry letters, 2013)

Chains of the proteins cited; added tags and fusions are not shown. Residues count along the entry.
UniProt P31424, 21-1203: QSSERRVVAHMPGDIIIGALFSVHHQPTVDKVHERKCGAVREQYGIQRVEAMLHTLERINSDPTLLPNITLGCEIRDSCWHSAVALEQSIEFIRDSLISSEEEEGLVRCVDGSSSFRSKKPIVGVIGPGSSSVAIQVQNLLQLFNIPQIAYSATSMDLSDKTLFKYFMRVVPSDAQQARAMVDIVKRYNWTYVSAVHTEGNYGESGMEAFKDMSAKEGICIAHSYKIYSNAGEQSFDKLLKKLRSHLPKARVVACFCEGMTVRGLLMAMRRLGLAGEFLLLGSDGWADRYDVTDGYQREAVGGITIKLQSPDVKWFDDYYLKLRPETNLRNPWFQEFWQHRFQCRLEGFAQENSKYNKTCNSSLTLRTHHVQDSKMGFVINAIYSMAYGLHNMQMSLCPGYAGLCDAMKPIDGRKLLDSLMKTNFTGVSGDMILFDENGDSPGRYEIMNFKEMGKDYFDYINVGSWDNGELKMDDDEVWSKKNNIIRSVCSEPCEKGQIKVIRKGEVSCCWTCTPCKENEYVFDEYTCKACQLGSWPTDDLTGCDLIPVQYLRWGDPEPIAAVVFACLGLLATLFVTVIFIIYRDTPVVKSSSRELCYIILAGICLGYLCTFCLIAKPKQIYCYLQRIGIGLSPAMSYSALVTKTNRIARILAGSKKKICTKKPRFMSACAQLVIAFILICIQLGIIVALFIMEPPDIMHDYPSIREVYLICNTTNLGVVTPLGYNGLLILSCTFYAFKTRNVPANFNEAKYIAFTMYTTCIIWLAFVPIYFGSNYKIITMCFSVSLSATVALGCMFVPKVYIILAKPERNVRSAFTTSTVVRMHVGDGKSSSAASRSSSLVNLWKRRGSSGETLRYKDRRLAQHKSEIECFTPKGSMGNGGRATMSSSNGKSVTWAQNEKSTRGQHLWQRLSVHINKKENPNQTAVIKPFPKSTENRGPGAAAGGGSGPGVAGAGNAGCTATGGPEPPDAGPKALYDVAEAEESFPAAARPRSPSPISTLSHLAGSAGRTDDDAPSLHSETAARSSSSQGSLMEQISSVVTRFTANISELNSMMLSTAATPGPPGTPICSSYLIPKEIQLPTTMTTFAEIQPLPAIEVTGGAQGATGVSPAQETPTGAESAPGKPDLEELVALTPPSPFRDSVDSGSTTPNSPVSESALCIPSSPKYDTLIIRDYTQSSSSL

Biological target: rat mGlu5 (Rattus norvegicus, UniProt P31424)
Experiment: Calcium mobilization mGlu5 assay
Assay type: cell-based
Conditions: HEK293A cells expressing rat mGlu5; EC80 glutamate; average of n ≥ 3

mGlu5 pIC50 (± SEM): < 4.5
Structure (SMILES): Cc1nc(NC(=O)c2cccc(Oc3cccnc3)c2)nn1C [Compound 21]
